Biological target: T1, Human Thrombin (Homo sapiens, UniProt P00734)
T1 construct: Determination of Anti-Thrombin (Factor IIa) Activity; purchased Calbiochem
Test: Determination of Anti-Thrombin (Factor IIa) Activity
Format: biochemical
Conditions: competitive inhibition; substrate Pefachrome Thr; pH 8.3
Procedure: The test compounds (40 μL) adjusted to various concentrations (0.25 to 100 μM) were incubated with Human Thrombin (Calbiochem) enzyme (5 nM) in 31 mM Tris buffer (pH 8.3) containing 81 mM sodium chloride and 0.63% bovine serum albumin (fraction V)(80 μL) at room temperature for about 30 minutes. 80 μL of Pefachrome® Thr (Pentapharm) was adjusted to various concentrations, from 62.5 μM to 1.25 mM. The activity was measured at about 37° C. by monitoring absorbance at 405 nm for about 15 minutes using a FLUOstar OPTIMA™. Control sample was the solvent alone. Each test compound was analyzed twice using 4 concentrations of compound plus control (in duplicate) with 5 concentrations of substrate (50, 100, 200, 300 and 500 μM). The specific activity (ΔA405/min/nM enzyme) was determined for each data point. The Ki for competitive inhibition was then determined for each test compound using the Enzyme Kinetics module of Sigmaplot 8.0 (SPSS).

SMILES: Cc1ncc(CNc2ccc(C(=N)N)cc2)c(CF)c1OCc1cccc(C(=N)N)c1 [Compound 108, 4-{[4-Fluoromethyl-5-(3-amidine-benzyloxy)-6-methyl-pyridin-3-ylmethyl]-amino}-benzamidine]
- Ki: 22 nM

Source: patent US7812037B2, “Dual antiplatelet/anticoagulant pyridoxine analogs” (Medicure International, Inc., priority 2004, dated 2010)
